Data taken from patent publication US11279719B2, “Substituted bicyclic pyrimidine-based compounds and compositions and uses thereof” (priority 2017, dated 2022).

Protein sequences, listed by entry. Tags and fused reporters are not part of them. Lines headed by an entry give the natural chain unless they say otherwise; changes in a name come on top.
UniProt P14324: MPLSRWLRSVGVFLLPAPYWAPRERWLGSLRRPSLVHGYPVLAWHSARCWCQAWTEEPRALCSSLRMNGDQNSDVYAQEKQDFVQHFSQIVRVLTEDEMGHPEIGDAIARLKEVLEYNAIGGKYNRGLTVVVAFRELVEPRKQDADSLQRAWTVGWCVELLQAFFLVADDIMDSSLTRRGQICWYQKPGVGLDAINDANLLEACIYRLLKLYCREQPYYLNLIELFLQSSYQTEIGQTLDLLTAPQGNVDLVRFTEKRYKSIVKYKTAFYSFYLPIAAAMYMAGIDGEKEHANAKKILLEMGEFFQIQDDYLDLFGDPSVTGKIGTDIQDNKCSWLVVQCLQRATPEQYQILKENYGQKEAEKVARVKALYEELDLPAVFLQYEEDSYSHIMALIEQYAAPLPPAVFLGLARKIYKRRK

Legend:
RPMI-8226 = assay: MM cell viability assay (MTS proliferation); assay type: cell-based; details: Homo sapiens, 72 hours, average of n ≥ 8 determinations, read-out: MM cells EC50, RPMI-8226
hFPPS = hFPPS (Homo sapiens (Human), UniProt P14324); assay: biochemical

- EC50 (RPMI-8226): > 10 µM
- IC50 (hFPPS): > 10 µM
SMILES: O=C(Nc1cccc(-c2cc3c(NC(P(=O)(O)O)P(=O)(O)O)ncnc3s2)c1)c1ccccc1 [Compound C-11, reference compound]
